Consider one compound from ChEMBL document CHEMBL3808308, “Synergistic potentiation of (-)-lomaiviticin A cytotoxicity by the ATR inhibitor VE-821” (Bioorg Med Chem Lett, 2016).

In the test the test system is K562. The experiment in a line: Potentiation of 2.5x10'-5 uM (-)-lomaiviticin A-induced cytotoxicity against human K562 cells assessed as fraction ratio affected at 5 uM after 24 hrs by cell titer-glo luminescence assay. Type of test: functional.

SMILES strings stand for the structures.

In the case of `O=C(c1cc(Cc2n[nH]c(=O)c3ccccc23)ccc1F)N1CCN(C(=O)C2CC2)CC1` [OLAPARIB], the Ratio amounted to 4.75 ×10⁻⁴ No_unit.
